From US20070202165A1, “Method for a supplemental dietary composition having a multi-phase dissolution profile” (priority 2006, published 2007)

Test: Solubility test with filtration: amount dissolved until saturated and dry powder remaining on filter paper
Format: physicochemical
Settings: for Max Amount Dissolved: 100 mL water, added in 1 g increments until visually saturated; for Dry Powder On Filter: gravity filtration, filter paper dried

**Q.** Which “Max Amount Dissolved” value (Powder type Fine-milled) does the source give for “glycine-L-arginine-alpha-ketoisocaproic acid calcium” here?
**A.** 18 g

**Q.** What about the “Dry Powder On Filter” value (Powder type Fine-milled) of the same substance?
**A.** 0.31 g

**Q.** What about the “Max Amount Dissolved” value (Powder type Regular) of the same substance?
**A.** 18 g

**Q.** What about the “Dry Powder On Filter” value (Powder type Regular) of the same substance?
**A.** 0.42 g

**Q.** What about the “Fold Change (unfiltered regular substance divided by unfiltered fine-milled substance)” value (regular vs fine-milled, potential theoretical improvement in bioavailability) of the same substance?
**A.** 1.4 fold
